# Source: US20210198277A1, “AMINE-SUBSTITUTED ARYL OR HETEROARYL COMPOUNDS” (Epizyme, Inc., priority 2016, published 2021)
# The chains behind the UniProt entries cited, without tags or fusion partners. Residues count along the entry.
# UniProt Q96KQ7, whole entry: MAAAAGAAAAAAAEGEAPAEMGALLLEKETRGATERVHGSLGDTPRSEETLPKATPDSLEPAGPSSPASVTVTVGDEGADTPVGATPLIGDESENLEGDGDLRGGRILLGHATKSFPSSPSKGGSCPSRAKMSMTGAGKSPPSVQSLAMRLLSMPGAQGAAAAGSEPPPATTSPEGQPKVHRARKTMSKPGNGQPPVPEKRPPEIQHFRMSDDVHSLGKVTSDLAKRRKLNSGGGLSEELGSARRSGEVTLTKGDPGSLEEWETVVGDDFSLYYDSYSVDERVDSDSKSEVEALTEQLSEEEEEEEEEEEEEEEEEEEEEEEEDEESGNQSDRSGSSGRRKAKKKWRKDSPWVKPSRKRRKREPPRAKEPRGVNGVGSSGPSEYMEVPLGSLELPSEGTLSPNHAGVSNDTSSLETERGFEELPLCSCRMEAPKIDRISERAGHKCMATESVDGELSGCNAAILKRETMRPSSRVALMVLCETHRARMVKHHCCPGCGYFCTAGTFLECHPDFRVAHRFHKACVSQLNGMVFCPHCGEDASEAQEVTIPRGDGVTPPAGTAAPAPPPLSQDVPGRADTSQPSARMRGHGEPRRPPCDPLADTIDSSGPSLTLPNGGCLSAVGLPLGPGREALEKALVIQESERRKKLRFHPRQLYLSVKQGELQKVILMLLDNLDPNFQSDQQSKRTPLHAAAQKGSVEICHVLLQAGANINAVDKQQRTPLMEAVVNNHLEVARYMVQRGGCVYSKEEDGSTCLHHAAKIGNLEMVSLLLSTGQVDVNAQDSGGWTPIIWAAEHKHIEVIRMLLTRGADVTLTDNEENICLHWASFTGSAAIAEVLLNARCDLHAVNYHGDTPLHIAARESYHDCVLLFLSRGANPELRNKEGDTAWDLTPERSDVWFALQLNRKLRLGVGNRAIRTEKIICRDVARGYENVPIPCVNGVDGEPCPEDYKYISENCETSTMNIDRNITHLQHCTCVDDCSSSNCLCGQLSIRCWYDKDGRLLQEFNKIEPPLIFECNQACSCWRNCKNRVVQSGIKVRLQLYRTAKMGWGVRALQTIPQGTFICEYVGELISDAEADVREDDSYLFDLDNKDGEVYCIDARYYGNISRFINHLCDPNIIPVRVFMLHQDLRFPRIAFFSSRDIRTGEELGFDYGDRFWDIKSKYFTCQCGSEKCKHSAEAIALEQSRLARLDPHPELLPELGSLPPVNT
# UniProt Q96KQ7, 913-1193 limits assumed: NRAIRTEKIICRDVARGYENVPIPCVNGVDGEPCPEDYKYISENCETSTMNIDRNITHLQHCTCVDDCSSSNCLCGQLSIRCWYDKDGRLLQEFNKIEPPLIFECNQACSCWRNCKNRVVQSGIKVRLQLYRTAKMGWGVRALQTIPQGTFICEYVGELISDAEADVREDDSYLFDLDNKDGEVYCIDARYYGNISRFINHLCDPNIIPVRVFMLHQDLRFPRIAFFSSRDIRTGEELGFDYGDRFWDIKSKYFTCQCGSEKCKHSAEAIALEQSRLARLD
# UniProt Q9H9B1, whole entry: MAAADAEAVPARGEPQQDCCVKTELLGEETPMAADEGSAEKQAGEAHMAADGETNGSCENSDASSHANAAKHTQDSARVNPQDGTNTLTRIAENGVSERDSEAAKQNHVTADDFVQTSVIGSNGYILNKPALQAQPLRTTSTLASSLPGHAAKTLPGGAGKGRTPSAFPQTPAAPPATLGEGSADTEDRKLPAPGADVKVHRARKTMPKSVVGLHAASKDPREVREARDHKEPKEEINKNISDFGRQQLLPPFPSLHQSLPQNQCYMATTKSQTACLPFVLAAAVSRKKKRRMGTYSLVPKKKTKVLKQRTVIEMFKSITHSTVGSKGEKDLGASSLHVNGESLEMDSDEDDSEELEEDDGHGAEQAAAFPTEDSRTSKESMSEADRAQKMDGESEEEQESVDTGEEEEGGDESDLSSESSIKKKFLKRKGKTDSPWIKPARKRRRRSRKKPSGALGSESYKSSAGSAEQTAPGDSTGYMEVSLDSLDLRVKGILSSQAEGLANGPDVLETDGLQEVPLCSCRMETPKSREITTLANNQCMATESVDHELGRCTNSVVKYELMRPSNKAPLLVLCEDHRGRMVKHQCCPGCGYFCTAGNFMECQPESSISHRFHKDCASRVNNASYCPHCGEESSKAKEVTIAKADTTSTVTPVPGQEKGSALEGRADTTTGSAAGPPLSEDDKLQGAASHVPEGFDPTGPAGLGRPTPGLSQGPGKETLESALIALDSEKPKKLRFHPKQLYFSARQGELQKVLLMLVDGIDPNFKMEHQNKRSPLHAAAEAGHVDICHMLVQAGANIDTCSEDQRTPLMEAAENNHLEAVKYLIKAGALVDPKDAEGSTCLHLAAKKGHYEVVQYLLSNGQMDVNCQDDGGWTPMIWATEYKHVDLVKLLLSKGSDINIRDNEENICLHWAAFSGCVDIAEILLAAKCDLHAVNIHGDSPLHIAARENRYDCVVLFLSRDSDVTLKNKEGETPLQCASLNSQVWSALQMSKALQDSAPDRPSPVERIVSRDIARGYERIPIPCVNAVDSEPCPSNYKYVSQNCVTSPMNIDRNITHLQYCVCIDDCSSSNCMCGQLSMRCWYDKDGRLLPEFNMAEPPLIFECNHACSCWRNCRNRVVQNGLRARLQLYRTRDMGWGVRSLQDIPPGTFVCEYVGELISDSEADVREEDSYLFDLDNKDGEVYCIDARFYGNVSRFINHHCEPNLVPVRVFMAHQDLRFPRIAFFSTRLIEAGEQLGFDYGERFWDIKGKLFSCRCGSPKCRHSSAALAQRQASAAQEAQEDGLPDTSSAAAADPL
# Legend:
# [1] = target: human EHMT2 913-1193 (Homo sapiens, UniProt Q96KQ7); experiment: EHMT2 enzyme assay on histone peptide substrate (EHMT2 PEP); format: biochemical
# [2] = target: EHMT1 (Homo sapiens, UniProt Q9H9B1); experiment: EHMT1 enzyme assay on peptide substrate (EHMT1 PEP); format: biochemical
# [3] = target: EHMT2 (Homo sapiens, UniProt Q96KQ7); experiment: MDA-MB-231 H3K9me2 in-cell Western assay (EHMT2 ICW); format: cell-based
# [4] = read-out: EHMT2 PEP IC50, Table VI
# [5] = read-out: EHMT1 PEP IC50, Table VI
# [6] = read-out: EHMT2 ICW IC50, Table VI
Structure (SMILES),"IC50 [1, 4]","IC50 [2, 5]","IC50 [3, 6]",also measured
CNc1cc(C)nc(Nc2cnc(OC)c(C#CCN3CCCC3)c2)n1,0.1 to 1 µM,0.1 to 1 µM,1 to 10 µM,–
CNc1ccnc(N[C@@H]2CCC[C@H](OCCCN3CCCC3)C2)n1 (relative stereo),–,–,–,"IC50 ([1]; read-out: EHMT2 PEP (IC50 μM), Table III): > 10 µM; IC50 ([2]; read-out: EHMT1 PEP (IC50 μM), Table III): > 10 µM; IC50 ([3]; read-out: EHMT2 ICW (IC50 μM), Table III, MDA-MB-231 H3K9me2 in-cell Western): > 10 µM"
CNc1cc(C)nc(Nc2ccc(C#N)c(OCCCN3CCCC3)c2)n1,1 to 10 µM,0.1 to 1 µM,1 to 10 µM,–
CNc1ccnc(Nc2cnc(OC)c(OCCCN3CCCC3)c2)n1 [Compound 1048],0.1 to 1 µM,< 0.1 µM,0.1 to 1 µM,–
CNc1cc(C)nc(Nc2ccc(OC)c(C#CCN3CCCCC3)c2)n1,< 0.1 µM,< 0.1 µM,0.1 to 1 µM,–
CNc1ccnc(Nc2cnc(OC)c(OCC3CCN(C4CC4)C3)c2)n1 (stereo not drawn),< 0.1 µM,< 0.1 µM,< 0.1 µM,–
CNc1cc(C(F)(F)F)nc(Nc2ccc(OC)c(OCCCN3CCCC3)c2)n1 [Compound 362],–,–,–,"IC50 ([1]; read-out: EHMT2 PEP (IC50 μM), Table II): > 10 µM; IC50 ([2]; read-out: EHMT1 PEP (IC50 μM), Table II): > 10 µM; IC50 ([3]; read-out: EHMT2 ICW (IC50 μM), Table II, MDA-MB-231 H3K9me2 in-cell Western): > 10 µM"
CNc1cc(C)nc(Nc2ccc(OC)c(OC[C@@H]3CCN(C(C)C)C3)c2)n1 [Compound 1040],–,–,–,"IC50 ([1]; read-out: EHMT2 PEP (IC50 μM), recombinant human EHMT2 913-1193, histone H3 1-15 peptide, balanced conditions): 1 to 10 µM; IC50 ([2]; read-out: EHMT1 PEP (IC50 μM)): 1 to 10 µM; IC50 ([3]; read-out: EHMT2 ICW (IC50 μM), H3K9me2 in-cell Western, MDA-MB-231 cells): 1 to 10 µM"
CNc1cc(C)nc(Nc2ccc(OC)c(C#CCN3CCCC3)c2)n1,< 0.1 µM,< 0.1 µM,0.1 to 1 µM,–

# Read-outs that look alike come from different tables or passages of the source.
